Measured values from paper PMC4228444 (BMC Complementary and Alternative Medicine, 2013).

Key:
[1] = system: U937 human macrophage; assay: In vitro cytotoxicity assay (XTT), U937; conditions: U937 cells
Protocol: (§1) The mouse melanocytes (B16-F10) cells were cultured in a complete Minimum Essential Eagle’s Medium (MEM) whereas the human U937 cells were cultured in Roswell Park Memorial Institute (RPMI) containing 10% fetal bovine serum (FBS) and 1% gentamycin. B16-F10 (10^5 cells per well) and U937 (10^6 cells per well) were seeded into a 96-well plate. After an overnight incubation at 37°C in 5% CO2 and a humidified atmosphere, the extract, compounds and the positive control (actinomycin D) were added to the cells. […] The highest concentration of positive control (0.05 μg/ml) was serially diluted to eight consecutive wells. The plate was then incubated at 37°C in 5% CO2, and a humidified atmosphere after which the toxic effects of the extracts were assayed using the XTT (sodium 3’-[1-(phenyl amino-carbonyl)-3,4-tetrazolium]-bis-[4-methoxy-6-nitrobenzene sulfonic acid hydrate) cytotoxicity assay. […] The optical densities of the wells were measured at 450 nm (690 nm reference wavelength) using BIOTEK Power-wave XS multi well reader (A.D.P., Weltevreden Park, South Africa). By referring to the control (medium with DMSO), the cell survival rate was assessed.

[2] = system: B16-F10 mouse melanocytes; assay: In vitro cytotoxicity assay (XTT), B16-F10; conditions: B16-F10 cells
Protocol: as §1

Q: With myricitrin as the substance, how does the Toxicity in words [1] read?
A: The Toxicity in words was “did not show any toxicity”.

Q: And the Toxicity in words [2]?
A: The Toxicity in words was “did not show any toxicity”.
